Values of other authors in patent US9901549B2, “Method for treating vaginal dryness by administering transient receptor potential cation channel subfamily M member 8 (TRPM8) receptor agonists” (UNIVERSIDAD MIGUEL HERNÁNDEZ DE ELCHE, priority 2010, dated 2018).

By UniProt entry, the sequences of proteins in these tests, tags left out.
UniProt Q7Z2W7, whole entry: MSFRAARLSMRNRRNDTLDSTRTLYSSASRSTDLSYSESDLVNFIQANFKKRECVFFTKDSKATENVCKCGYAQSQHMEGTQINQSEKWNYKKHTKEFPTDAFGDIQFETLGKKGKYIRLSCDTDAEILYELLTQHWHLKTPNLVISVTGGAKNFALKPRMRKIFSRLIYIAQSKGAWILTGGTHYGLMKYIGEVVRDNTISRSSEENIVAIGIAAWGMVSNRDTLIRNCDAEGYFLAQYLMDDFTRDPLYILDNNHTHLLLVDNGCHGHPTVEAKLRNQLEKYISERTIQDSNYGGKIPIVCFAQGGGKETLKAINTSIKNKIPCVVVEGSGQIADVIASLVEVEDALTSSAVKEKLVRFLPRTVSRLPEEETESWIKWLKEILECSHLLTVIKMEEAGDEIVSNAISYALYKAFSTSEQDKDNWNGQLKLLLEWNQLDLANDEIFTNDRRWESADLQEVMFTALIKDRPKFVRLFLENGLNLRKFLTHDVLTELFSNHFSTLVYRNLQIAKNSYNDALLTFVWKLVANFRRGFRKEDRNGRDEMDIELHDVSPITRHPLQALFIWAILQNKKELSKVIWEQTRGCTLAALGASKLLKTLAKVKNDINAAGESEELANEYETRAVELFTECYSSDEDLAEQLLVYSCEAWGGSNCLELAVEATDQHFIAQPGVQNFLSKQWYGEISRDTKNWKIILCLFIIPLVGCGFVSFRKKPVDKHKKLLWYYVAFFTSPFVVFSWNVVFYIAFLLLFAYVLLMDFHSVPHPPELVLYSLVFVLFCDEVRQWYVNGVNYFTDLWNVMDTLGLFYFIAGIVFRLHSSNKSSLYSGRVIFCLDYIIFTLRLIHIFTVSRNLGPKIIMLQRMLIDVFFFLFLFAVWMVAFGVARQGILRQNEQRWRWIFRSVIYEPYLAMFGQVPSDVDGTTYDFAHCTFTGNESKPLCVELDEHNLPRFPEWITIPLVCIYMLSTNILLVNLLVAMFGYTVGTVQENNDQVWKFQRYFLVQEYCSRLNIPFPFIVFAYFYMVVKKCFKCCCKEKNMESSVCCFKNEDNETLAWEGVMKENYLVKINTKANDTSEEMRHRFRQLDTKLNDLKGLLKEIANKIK

Molecular target: native TRPM8 channel (Homo sapiens, UniProt Q7Z2W7)
Details: read-out: IC50 menthol; SF; 20 μM menthol at 22° C.; Ortar et al. 2010; cited from earlier work

In the case of `CC(C)[C@@H]1CC[C@@H](C)C[C@H]1NC(=O)Oc1ccc(C(C)(C)C)cc1`, the IC50 is listed as 100 nM.
